{"source": "paper PMC11623267", "about": "“Inhibitors of malaria parasite cyclic nucleotide phosphodiesterases block asexual blood-stage development and mosquito transmission” (Science Advances, 2024)", "origin": "cited, not measured here", "test_system": "PDE11", "conditions": "cited from earlier work", "data": [{"compound": "CN1CC(=O)N2[C@H](c3ccc4c(c3)OCO4)c3[nH]c4ccccc4c3C[C@@H]2C1=O", "note": "[tadalafil]", "values": [{"measurement": "Selectivity (PDE5 over PDE11)", "value": "~ 5 fold"}]}]}
